Ab-14 heavy chain CDR variants: yeast mating affinities

Antigen: PDVDLGDISGINAS, a 14-residue peptide of the SARS-CoV-2 spike HR2 region.

Each scFv is VH, the linker GGGGSGGGGSGGGGS, VL, as in the parent Ab-14, and differs from it in the CDRs of the heavy chain only.
VH: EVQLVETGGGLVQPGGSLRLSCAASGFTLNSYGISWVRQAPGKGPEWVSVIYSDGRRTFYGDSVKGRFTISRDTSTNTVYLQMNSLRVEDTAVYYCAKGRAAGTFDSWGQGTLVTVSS
VL: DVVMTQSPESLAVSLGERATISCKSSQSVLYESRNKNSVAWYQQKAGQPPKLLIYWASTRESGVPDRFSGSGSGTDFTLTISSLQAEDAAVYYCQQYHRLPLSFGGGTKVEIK

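Phage display of a naive human antibody library on the peptide gave the parent. The variants were designed computationally from a first round of random CDR variants and then made and measured. Their group label is 14H_En_Gen (En: ensemble of fine-tuned language models; Gen: genetic algorithm). Affinity was read by AlphaSeq, a pooled yeast mating assay with surface-displayed partners. After mating in shaken culture at 30 °C for 16 h, diploids were selected and their barcode pairs sequenced. A regression on co-assayed BCL2-family reference pairs converts the normalised counts of each replicate to an apparent Kd. Mating was done six times.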

The parent's heavy chain CDRs are GFTLNSYGIS, VIYSDGRRTFYGDSVK, GRAAGTFDS; each variant's own CDRs replace them letter for letter.
Numbers give log10(Kd / nM), so 0 is 1 nM and 3 is 1 µM. Smaller is tighter.
A mean of the replicates is given; it leaves out those without a signal.
An entry "nd" has no value in the source: the pair was not observed among the diploids in that replicate. This suggests poor binding but is not conclusive.
The parent sequence was in this pool as ten entries: three were never detected, three once, and four in most replicates, with averages from 0.34 to 2.37.

CDR-H1,CDR-H2,CDR-H3,"log10 Kd, replicates",mean log10 Kd (nM),control signals
GFDLNEYGIS,VIYADGKRTYYADSVK,GNVAGTFDV,0.51 / 0.34 / 0.19 / 0.78 / 0.65 / 1.67,0.69,0/18
GFDLNEYGIS,VIYADGKRTAYADSVK,GETAGTFVQ,-0.19 / 0.07 / -0.04 / -0.01 / -0.18 / -0.08,-0.07,0/18
GFDLNEYGIS,VIYADGSRTAYADSVK,GTNAGTFDV,1.82 / 1.40 / 1.79 / 1.90 / 0.82 / 1.22,1.49,0/18
GFDLDEYGIS,VIYADGQRTAYSDSVK,GENAGTFDQ,-0.93 / -1.54 / -1.94 / -1.41 / 0.01 / -0.53,-1.06,0/18
GFDLNEYGIS,VIYADGRRTAYADDVK,GENAGTFDT,0.43 / 0.46 / 0.31 / 0.37 / -0.02 / 0.44,0.33,0/18
GFDLNEYGIS,VIYADGLRTAYSDSVK,GEVAGTFDV,-0.14 / -0.69 / -0.82 / -0.38 / -0.42 / -0.03,-0.41,0/18
GFDLNEYGIS,VIYADGIRTAYADNVK,GEVAGTFDV,-0.12 / -0.50 / -0.60 / -0.70 / -0.69 / -0.14,-0.46,0/18
GFDLDEYGIS,VIYADGSRTAYADDVK,GEVAGTFDV,0.27 / 0.02 / nd / 0.15 / 0.06 / -0.01,0.10,0/18
GFDLNEYGIS,VIYADGKRTAYIDSVK,GENAGTFDL,1.71 / 3.31 / 2.09 / 1.67 / 2.99 / nd,2.35,0/18
GFDLNEYGIS,VIYADGMRTAYSDSVK,GENAGTFDQ,-0.51 / -0.35 / -0.40 / -0.72 / -0.59 / 0.16,-0.40,0/18
GFDLDEYGIS,VIYADGMRTAYVDSVK,GTNAGTFDV,-0.39 / -0.83 / -0.74 / -0.96 / -0.80 / -0.57,-0.71,0/18
GFDLNEYGIS,VIYADGMRTAYADKVK,GNNAGTFDQ,-0.77 / -0.71 / -0.88 / -0.97 / -0.72 / -0.62,-0.78,1/18 (2.05)
GFDLDEYGIS,VIYADGRRTAYADSVK,GEVAGTFDQ,-0.35 / -0.79 / -0.59 / -0.64 / -0.48 / 0.10,-0.46,0/18
GFDLNEYGIS,VIYADGMRTAYIDSVK,GNTAGTFDL,-0.38 / -0.41 / -0.67 / -0.32 / -0.66 / -0.61,-0.51,0/18
GFDLNEYGIS,VIYADGVRTFYADDVK,GNNAGTFDV,0.00 / -0.31 / -0.65 / -0.35 / -0.28 / -0.30,-0.31,0/18
GFNLDEYGIS,VIYADGRRTAYSDSVK,GNVAGTFDV,-0.49 / -0.47 / -0.59 / -0.55 / -0.46 / -0.19,-0.46,1/18 (2.58)
GFDLEEYGIS,VIYADGMRTAYADSVK,GNVAGTFDV,-0.84 / -0.86 / -0.94 / -1.21 / -0.73 / -0.40,-0.83,1/18 (1.36)
GFDLNEYGIS,VIYADGMRTAYADSVK,GSNAGTFDM,1.44 / 1.61 / 0.90 / 2.03 / 0.37 / 1.03,1.23,0/18
GFDLNEYGIS,VIYADGMRKAYADSVK,GNNAGTFDM,nd / nd / nd / nd / nd / nd,nd,0/18
GFDLDEYGIS,VIYADGMRTAYADSVK,GSNAGTFDQ,0.32 / -0.72 / 0.00 / -1.51 / -1.07 / 0.05,-0.49,0/18
GFDLDEYGIS,VIYADGMRTFYADSVK,GQNAGTFDI,-0.48 / -0.47 / -0.24 / -0.38 / nd / nd,-0.39,0/18
GFDLNEYGIS,VIYADGMRTFYADDVK,GGNAGTFDV,-0.40 / -0.35 / -0.70 / -0.56 / -0.39 / -0.37,-0.46,1/18 (1.83)
GFDLEDYGIS,VIYADGQRTAYADSVK,GNNAGTFDV,0.10 / -0.29 / -0.30 / -0.34 / -0.31 / -0.18,-0.22,0/18
GFDLDEYGIS,VIYADGKRTVYADSVK,GNVAGTFDI,-0.53 / -0.49 / -0.46 / -0.39 / -0.60 / -0.45,-0.49,1/18 (2.15)
GFDLNEYGIS,VIYADGMRTAYADNVK,GENAGTFDQ,0.62 / -0.87 / -0.90 / -0.75 / 0.42 / -0.26,-0.29,1/18 (1.30)
GFDLNEYGIS,VIYADGKRTVYADSVK,GNVAGTFDI,-0.18 / -0.01 / 0.07 / -0.20 / -0.43 / 0.02,-0.12,3/18 (2.45)
GFDLNEYGIS,VIYADGMRTAYADNVK,GTVAGTFDI,-0.76 / -0.61 / -0.83 / -0.74 / -0.77 / -0.85,-0.76,0/18
GFDLDEYGIS,VIYADGMRTAYADKVK,GNVAGTFDL,-0.20 / -0.78 / -0.54 / -0.69 / -0.23 / -0.62,-0.51,0/18
GFDLNEYGIS,VIYADGMRTAYIDSVK,GNVAGTFDL,-0.63 / -0.13 / -0.68 / -0.56 / -0.55 / -0.58,-0.52,2/18 (1.61)
GFDLNEYGIS,VIYADGMRTAYSDSVK,GHNAGTFDV,-1.06 / -1.25 / -0.04 / -0.80 / -1.20 / -0.45,-0.80,1/18 (-0.07)
GFDLDEYGIS,VIYADGKRTAYADSVK,GTNAGTFDL,0.13 / -0.11 / -0.02 / -0.07 / -0.11 / 0.21,0.01,0/18
GFDLDEYGIS,VIYADGQRTAYADSVK,GQNAGTFDI,-0.30 / -0.99 / -0.70 / -0.88 / -1.13 / -0.74,-0.79,0/18
GFDLEDYGIS,VIYADGVRTAYADSVK,GENAGTFDV,0.45 / 1.79 / 0.09 / 0.09 / 0.27 / 0.16,0.47,0/18
GFDLNEYGIS,VIYADGVRTAYADSVK,GNQAGTFDL,-0.07 / -0.59 / -0.25 / -0.77 / -0.48 / -0.10,-0.38,0/18
GFDLNEYGIS,VIYADGKRTAYADSVK,GNNAGTFVQ,1.31 / 1.04 / 1.41 / 1.39 / 1.74 / 2.26,1.52,0/18
GFDLDEYGIS,VIYADGVRKAYADDVK,GNVAGTFDV,-0.40 / -0.53 / -0.63 / -0.30 / -0.62 / 0.11,-0.39,0/18
GFDLNEYGIS,VIYADGMRTAYIDSVK,GETAGTFDV,-0.03 / -0.30 / -0.90 / -1.11 / -0.67 / -0.46,-0.58,0/18
GFDLEEYGIS,VIYADGMRTAYSDSVK,GENAGTFDV,0.30 / -0.24 / -0.42 / -0.50 / -0.32 / 0.01,-0.19,0/18
GFDLNEYGIS,VIYADGVRTAYVDSVK,GSNAGTFDV,-0.48 / -0.84 / nd / -0.45 / nd / -1.44,-0.80,0/18
GFDLNEYGIS,VIYADGQRTAYIDSVK,GNVAGTFDQ,-0.38 / -0.22 / -0.29 / -0.28 / -0.34 / -0.07,-0.26,1/18 (1.98)
GFDLNEYGIS,VIYADGLRTYYADSVK,GNVAGTFDI,-0.47 / -0.97 / -0.70 / -0.93 / -0.75 / -0.77,-0.76,1/18 (1.91)
GFNLDEYGIS,VIYADGVRTAYADSVK,GEVAGTFDV,-0.11 / -0.47 / -0.49 / -0.48 / -0.48 / -0.46,-0.42,1/18 (1.24)
GFDLDEYGIS,VIYADGKRTAYSDSVK,GNEAGTFDI,nd / nd / nd / 0.34 / nd / nd,0.34,0/18

The authors averaged sequences with at least three values out of six and counted those with two or fewer as poor binders.
Empty control strains, which show no peptide, gave a signal in 1% of pairings with all heavy chain designs; the median was 2.08 and 95% of these signals were weaker than 0.84. No background was subtracted. For each scFv, signals with the empty controls are counted beside the result, with their mean in brackets.
Values of this round are not directly comparable with the first-round values of the same sequences.

Source: Li et al. 2023 (doi:10.1038/s41467-023-39022-2), MIT Lincoln Laboratory and A-Alpha Bio; data file from the FLAb repository.